The results in this text go back to patent US20230227514A1, “BETA-ARRESTIN COMPOSITIONS AND ASSOCIATED METHODS” (Duke University, priority 2020, published 2023).

The experiment addresses T1, V2R (Homo sapiens, UniProt P30518).
T1 construct: HA (N); expressed in transfected cells
Nature of the experiment: Co-immunoprecipitation of βarrestin2 constructs with HA-V2R. Type of experiment: binding. Particulars: HEK-293 cells stably expressing HA-V2R; AVP.

As for “βarrestin2: wild-type rat βarrestin2 (SEQ ID NO:3), tagged, used as comparator [reference compound]”, the “binding with agonist activated V2Rs by co-immunoprecipitation” value is on record as “equivalent binding”.
